Patent publication US4599360A, “Ophthalmic anti-inflammatory agents” (Sankyo Company Limited, priority 1983, dated 1986)

Experiments:
[1] = tested on: RFVL type mice; assay: Acute toxicity, oral administration; settings: mouse, in vivo
[2] = Acute toxicity, oral administration; design: species or system RFVL type mice; settings: mouse, in vivo, LD50

SMILES: CC(C(=O)O)c1ccc(C=C2CCCCC2=O)cc1 (centres unmarked) [D, 2-[4-(2-oxocyclohexylidenemethyl)phenyl]propionic acid]
- LD50 [1]: 2000 mg/kg
- LD50 [2]: 1800 mg/kg
